# Biological target: T1, murine αMSH receptor (MC-1) (Mus musculus, UniProt Q01727)
# Amino acid sequences for entries named in this document (tags omitted). A change or cut given only in a name is not applied to a line headed by its entry.
# UniProt Q01727: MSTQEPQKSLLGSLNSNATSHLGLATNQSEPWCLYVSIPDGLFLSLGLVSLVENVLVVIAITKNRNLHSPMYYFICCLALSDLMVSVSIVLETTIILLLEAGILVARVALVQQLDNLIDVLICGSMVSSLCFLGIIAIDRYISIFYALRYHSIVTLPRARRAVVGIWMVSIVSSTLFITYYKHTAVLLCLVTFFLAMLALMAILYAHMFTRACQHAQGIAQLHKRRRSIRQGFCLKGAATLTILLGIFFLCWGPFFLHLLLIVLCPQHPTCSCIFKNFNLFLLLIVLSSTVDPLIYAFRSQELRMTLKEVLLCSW
# T1 construct: excising the entire coding region of the αMSH^R (MC-1) cDNA insert comprising a 2.1 kb fragment; expressed in transfected cells; host or cells: human 293 cells, pcDNAI/neo, G418-selected
# Experiment: intracellular cAMP accumulation in 293 cells transfected with mouse αMSH receptor
# Format: cell-based
# Settings: read-out: EC50 (intracellular cAMP); 293 cells expressing murine αMSH receptor, 45 min at 37° C.
substance,measurement,value
α-melanocyte stimulating hormone [α-MSH],EC50,2 nM

# Reference: US6476187B1, “Methods and reagents for discovering and using mammalian melanocortin receptor agonists and antagonists to modulate feeding behavior in animals” (Oregon Health & Sciences University, priority 1992, dated 2002)
